Values of other authors in patent US5266561A, “Treatment of type 2 diabetes mellitus” (Amylin Pharmaceuticals, Inc., priority 1991, dated 1993).

System: rat islet cells
Conditions: literature statement; cited from earlier work

## calcitonin gene related peptide (ACDTATCVTHRLAGLLSRSGGVVKNNFVPTNVGSKAF; Calcitonin gene-related peptide 1; UniProt P06881 83-119, looked up) [CGRP, calcitonin gene related peptide, amylin agonist]
  inhibition of the insulin secretory response of islet B-cells to glucose: potent inhibitor
